{"source": "patent US20230028658A1", "about": "“EXPANDED DOSAGE REGIMENS FOR INTEGRIN INHIBITORS” (Pliant Therapeutics, Inc., priority 2021, published 2023)", "tested_on": "Type I Collagen gene Col1a1 expression", "assay": "Precision cut lung slices of mice under acute bleomycin exposure, Col1a1 expression", "format": "cell-based, Mice (C57BL/6)", "procedure": "Mice (C57BL/6) were administered 3 U/kg of bleomycin (Teva Pharmaceuticals; North Wales, Pa.) on day 0 via oropharyngeal aspiration while under anesthesia. On day 14, precision cut lung slices were obtained. Following euthanization, 2% low gelling temp agarose was injected into the mouse lungs via the trachea. […] The lobes were then subjected to precision slicing to obtain samples for culture using a microtome (Compresstome VF-300-0Z, Precisionary; Greenville, N.C.). Individual slices were distributed in a multiwell culture plate and cultured for 3 days under control (DMSO) and test compound conditions."}
{"smiles": "Cc1cc(C)n(-c2cccc([C@H](CC(=O)O)CN3CC[C@H](CCc4ccc5c(n4)NCCC5)C3)c2)n1", "note": "[first pan-αv small molecule inhibitor, (3S)-3-[3-(3,5-dimethyl-1H-pyrazol-1-yl)phenyl]-4-{(3S)-3-[2-(5,6,7,8-tetrahydro-1,8-naphthyridin-2-yl)ethyl]-1-pyrrolidinyl}butanoic acid]", "values": [{"measurement": "Type I Collagen gene Col1a1 expression", "result": "reduced Type I Collagen gene Col1a1 expression"}]}
